Assay results from patent US20060165603A1, “Solubilisation of drugs in hfa propellant by means of emulsions” (Chiesi Farmaceutici S.p.A., priority 2002, published 2006).

Assay: Photon Correlation Spectroscopy (PCS) microemulsion particle size
Type: physicochemical
Details: L64 10%, EtOH 20%, water 5%, salbutamol sulphate 25 μg/dose (per 50 μl metering volume)
Protocol: For the microemulsions, the samples have been characterised by dynamic light scattering also known as Photon Correlation Spectroscopy to detect the presence of the droplets of the internal phase. Formulation metering performance was evaluated by determining the emitted dose and drug delivery performance was evaluated via Anderson Cascade Impaction (ACI) measurements according to the method described in Apparatus 2, EP 3rd Edition 1999 supplement, section 2.9.18, Aerosol assessment of fine particles.
Photon Correlation Spectroscopy (PCS) characterization of the Synerionic L64 based microemulsions was carried out and the results are shown in Table 4.

Microemulsion particle size: 10.0 nm
Substance: salbutamol sulphate
